# Experimental data reported in US20240139326A1, “METHACRYLAMIDES PROTEIN BINDERS AND USES THEREOF” (YEDA RESEARCH AND DEVELOPMENT CO. LTD., priority 2020, published 2024).
# Amino acid sequences for entries named in this document (tags omitted). Residues count along the entry.
# UniProt Q06187, 402-655: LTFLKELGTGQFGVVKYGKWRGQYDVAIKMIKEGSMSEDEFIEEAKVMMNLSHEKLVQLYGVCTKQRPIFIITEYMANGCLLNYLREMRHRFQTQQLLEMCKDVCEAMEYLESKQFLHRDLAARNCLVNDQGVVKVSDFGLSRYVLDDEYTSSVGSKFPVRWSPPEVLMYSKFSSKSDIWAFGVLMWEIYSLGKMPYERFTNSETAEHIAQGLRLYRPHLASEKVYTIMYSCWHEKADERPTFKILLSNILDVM
# Target: BTK kinase domain (Homo sapiens (Human), UniProt Q06187)
# Test: Kinetic labeling experiments of Ibrutinib derivatives with BTK (intact protein LC/MS)
# Settings: mechanism of BTK labeling
compound,measurement,value
"C=C(COc1ccccc1)C(=O)N1CCC[C@@H](n2nc(-c3ccc(Oc4ccccc4)cc3)c3c(N)ncnc32)C1 [Compound 3i, (R)-1-(3-(4-amino-3-(4-phenoxyphenyl)-1H-pyrazolo[3,4-d]pyrimidin-1-yl)piperidin-1-yl)-2-(phenoxymethyl)prop-2-en-1-one]",BTK Substitution/Addition,Substitution
